According to publication PMC9306920 (Clinical Pharmacology in Drug Development, 2022):
Where “and” joins values, the source holds several entries; their conditions need not be identical. Identical values can stand only once. Like-named read-outs stand apart in the source and are kept apart here.

Experiments:
[1] = Plasma pharmacokinetics in thorough QT study; format: in vivo, human; details: for Cmax, geometric mean: fasted; for Cmax, geometric mean / AUC0-inf, arithmetic mean / AUC0-inf, geometric mean / AUC0-t, arithmetic mean / AUC0-t, geometric mean / Cmax, arithmetic mean / t1/2, arithmetic mean / tmax, median: plasma, n = 39
[2] = tested on: healthy subjects; details: for LS mean ΔPR: 0.5 hours after dosing; for Largest LS mean ΔΔQTcF: 2 hours after dosing; for Largest LS mean ΔHR: 6 hours after dosing
[3] = tested on: healthy subjects
[4] = tested on: healthy subjects; remark: listed apart in the source
[5] = human PK studies, oral; cited from earlier work
[6] = 36 mg versus 12 mg (3-fold increase in dose)
[7] = deucravacitinib 12 mg single oral dose
[8] = deucravacitinib 36 mg single oral dose
[9] = deucravacitinib 36 mg, 1 hour after dosing

## Deucravacitinib
[1]; [6]
  Increase in geometric mean AUC from time 0 extrapolated to infinite time: 3.4 fold
  Increase in geometric mean Cmax: 3.4 fold
[1]; [7]
  Cmax, geometric mean: 91.9 ng/mL
  AUC0-inf, arithmetic mean: 946 ng·h/mL
  AUC0-inf, geometric mean: 910 ng·h/mL
  AUC0-t, arithmetic mean: 928 ng·h/mL
  AUC0-t, geometric mean: 892 ng·h/mL
  Cmax, arithmetic mean: 95.3 ng/mL
  t1/2, arithmetic mean: 13.4 h
  tmax, median: 2.60 h
[1]; [8]
  Cmax, geometric mean: 315 ng/mL
  AUC0-inf, arithmetic mean: 3201 ng·h/mL
  AUC0-inf, geometric mean: 3084 ng·h/mL
  AUC0-t, arithmetic mean: 3177 ng·h/mL
  AUC0-t, geometric mean: 3060 ng·h/mL
  Cmax, arithmetic mean: 324 ng/mL
  t1/2, arithmetic mean: 13.0 h
  tmax, median: 2.10 h
[1]; deucravacitinib 12 and 36 mg single oral dose
  tmax: < 3 h
[2]; any treatment, any time point
  Subjects with QTcF of >450 milliseconds or ΔQTcF of >30 milliseconds: No subject
[2]; deucravacitinib 12 mg
  LS mean ΔPR: 0.2 milliseconds
  Largest LS mean ΔΔQTcF: 0.8 milliseconds
  Largest LS mean ΔHR: 8.2 bpm
[2]; deucravacitinib 12 mg, 1 hour after dosing
  Largest LS mean ΔΔHR: 0.6 bpm
[2]; deucravacitinib 12 mg, 3 hours after dosing
  Largest LS mean ΔQTcF: −1.7 milliseconds
[2]; deucravacitinib 12 mg, all time points
  LS mean ΔQRS: ≤ 0.1 milliseconds
[2]; deucravacitinib 36 mg
  LS mean ΔPR: 0.2 milliseconds
  Largest LS mean ΔΔQTcF: 3.0 milliseconds
  Largest LS mean ΔHR: 8.7 bpm
[2]; [9]
  Largest LS mean ΔQTcF: 0.2 milliseconds
  Largest LS mean ΔΔHR: 4.0 bpm
[2]; deucravacitinib 36 mg, all time points
  LS mean ΔQRS: ≤ 0.1 milliseconds
[2]; deucravacitinib 12 and 36 mg, all time points
  Upper bound of 2-sided 90%CI for ΔΔQTcF: < 10 milliseconds
[2]; deucravacitinib at tested doses (12 and 36 mg)
  Clinically meaningful QTcF prolongation of >10 milliseconds: not found
[2]; during the study
  U-wave presence: No U‐wave observations
[2]; versus placebo
  Frequencies of flat, notched, and biphasic T-wave morphologies: lower than or the same as for placebo
[3]; concentration-QTc analysis
  Plasma concentration for which ΔΔQTcF exceeding 10 milliseconds was excluded: at least 500 ng/mL
[3]; deucravacitinib 36 mg, Cmax 315 ng/mL
  Predicted ΔΔQTcF at observed geometric mean Cmax: 2.1 milliseconds
[3]; deucravacitinib 12 and 36 mg
  Intercept of concentration-ΔΔQTcF model: 0.2 milliseconds and 0.19 milliseconds
[3]; deucravacitinib 12 and 36 mg, plasma concentration
  Estimated population slope of concentration-ΔΔQTcF model: 0.0059 milliseconds per ng/mL
[4]; deucravacitinib 12 mg
  Subjects with AEs, number: 5 subjects
  Subjects with AEs, percentage: 12.8%
  Subjects with headache (most frequent AE), percentage: 7.7%
  Subjects with treatment-related AEs: 4 subjects
  Treatment-related AEs, number of AEs: 8 AEs
[4]; deucravacitinib 12 mg, in 1 subject after fourth and final treatment
  SAEs considered related to the study drug (severe pharyngitis, lymphadenopathy, cellulitis): 3 SAEs
[4]; deucravacitinib 36 mg
  Subjects with AEs, number: 8 subjects
  Subjects with AEs, percentage: 20.5%
  Subjects with headache (most frequent AE), percentage: 15.4%
  Subjects with moderate bilateral otitis externa considered related to study drug: 1 subject
  Subjects with treatment-related AEs: 7 subjects
  Treatment-related AEs, number of AEs: 9 AEs
[4]; single oral doses of 12 and 36 mg
  Overall tolerability: generally well tolerated
[5]
  Absorption (near complete): 99%
  tmax: 1 h
